{"source": "patent US20240366505A1", "about": "“Liquid Resin Extended-Release Oral Naltrexone Formulation for Treating Autism-Related Disorders” (AARDVARK THERAPEUTICS, INC., priority 2022, published 2024)", "key": {"[1]": {"conditions": "cited from earlier work"}, "[2]": {"experiment": "Single administration of 50 mg REVIA tablets to 36 healthy adult male volunteers (ANDA #075434)", "conditions": "single 50 mg REVIA tablet"}}, "data": [{"smiles": "Oc1ccc2c3c1O[C@H]1[C@H](O)CC[C@@]4(O)[C@@H](C2)N(CC2CC2)CC[C@]314", "note": "[6-β-naltrexol]", "values": [{"measurement": "accumulation", "setting": "[1]; after 100 mg daily doses", "result": "do not accumulate"}, {"measurement": "mean elimination half-life", "setting": "[1]; immediate release oral", "result": "up to 13 hours"}, {"measurement": "dose proportionality of AUC and Cmax", "setting": "[1]; over the range of 50-200 mg", "result": "dose-proportional"}, {"measurement": "systemic exposure relative to naltrexone", "setting": "[2]", "result": "over 10 fold"}]}]}
